Eight compounds from US20140100156A1 (SANOFI, priority 2012, published 2014) can be followed below.

Chains of the proteins cited; added tags and fusions are not shown. Residues count along the entry.
UniProt P43220, 24-463: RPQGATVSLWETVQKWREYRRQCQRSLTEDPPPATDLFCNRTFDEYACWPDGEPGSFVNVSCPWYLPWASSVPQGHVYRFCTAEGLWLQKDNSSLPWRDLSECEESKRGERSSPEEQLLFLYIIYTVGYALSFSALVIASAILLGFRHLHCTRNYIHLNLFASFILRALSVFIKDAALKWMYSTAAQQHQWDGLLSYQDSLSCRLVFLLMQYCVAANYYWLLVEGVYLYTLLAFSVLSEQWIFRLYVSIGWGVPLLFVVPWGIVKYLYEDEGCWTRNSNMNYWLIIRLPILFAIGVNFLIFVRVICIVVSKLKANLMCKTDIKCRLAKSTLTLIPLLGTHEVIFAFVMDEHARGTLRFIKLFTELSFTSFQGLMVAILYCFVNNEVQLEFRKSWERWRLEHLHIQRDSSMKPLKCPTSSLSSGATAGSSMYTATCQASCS
UniProt P47871, 26-477: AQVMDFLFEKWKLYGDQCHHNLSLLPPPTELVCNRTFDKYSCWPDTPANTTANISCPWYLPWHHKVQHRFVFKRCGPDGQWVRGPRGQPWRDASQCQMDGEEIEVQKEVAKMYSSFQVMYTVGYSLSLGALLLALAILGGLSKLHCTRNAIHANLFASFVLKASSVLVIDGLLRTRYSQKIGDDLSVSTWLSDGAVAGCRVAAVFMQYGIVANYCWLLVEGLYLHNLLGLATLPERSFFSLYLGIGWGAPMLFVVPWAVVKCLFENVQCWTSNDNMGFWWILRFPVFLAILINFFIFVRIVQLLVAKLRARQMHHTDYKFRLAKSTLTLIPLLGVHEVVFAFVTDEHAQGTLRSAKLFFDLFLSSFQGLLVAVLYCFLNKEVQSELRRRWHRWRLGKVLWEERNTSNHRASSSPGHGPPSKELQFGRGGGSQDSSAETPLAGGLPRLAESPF

Experiment [1] concerns the target T1, human GLP-1 receptor (Homo sapiens, UniProt P43220).
T1 construct: expressed in transfected cells; host or cells: HEK-293
As to the kind of experiment: cAMP response (HTRF) of HEK-293 cells stably expressing human GLP-1 receptor. Type of experiment: cell-based. Conditions: Table 5; cAMP, HEK-293; read-out: EC50 hGLP-1R.

For experiment [2], the target named is T2, human glucagon receptor (Homo sapiens, UniProt P47871).
T2 construct: expressed in transfected cells; host or cells: HEK-293
In words: cAMP response (HTRF) of HEK-293 cells stably expressing human glucagon receptor. Type of experiment: cell-based. As to conditions: Table 5; cAMP, HEK-293; read-out: EC50 hGlucagon-R. A general note: In TR-FRET formats the signal depends on donor and acceptor labels being close together.

Take `CCCCCCCCCCCCCCCC(=O)N[C@@H](CCC(=O)NCCCC[C@H](NC(=O)[C@H](CCC(N)=O)NC(=O)[C@H](CCCCN)NC(=O)[C@H](CO)NC(=O)[C@H](CC(C)C)NC(=O)[C@H](CC(=O)O)NC(=O)[C@H](CO)NC(=O)[C@@H](NC(=O)[C@H](Cc1ccccc1)NC(=O)[C@@H](NC(=O)CNC(=O)[C@H](CCC(N)=O)NC(=O)[C@@H](CO)NC(=O)[C@@H](N)Cc1c[nH]cn1)[C@@H](C)O)[C@@H](C)O)C(=O)N[C@@H](CCC(=O)O)C(=O)N[C@@H](CO)C(=O)N[C@@H](CCCNC(=N)N)C(=O)N[C@@H](CCCNC(=N)N)C(=O)N[C@@H](C)C(=O)N[C@@H](CCC(N)=O)C(=O)N[C@@H](CC(=O)O)C(=O)N[C@@H](Cc1ccccc1)C(=O)N[C@H](C(=O)N[C@@H](CCC(=O)O)C(=O)N[C@@H](Cc1c[nH]c2ccccc12)C(=O)N[C@@H](CC(C)C)C(=O)N[C@@H](CCCCN)C(=O)N[C@@H](CC(N)=O)C(=O)NCC(=O)NCC(=O)N1CCC[C@H]1C(=O)N[C@@H](CO)C(=O)N[C@@H](CO)C(=O)NCC(=O)N[C@@H](C)C(=O)N1CCC[C@H]1C(=O)N1CCC[C@H]1C(=O)N1CCC[C@H]1C(=O)N[C@@H](CO)C(N)=O)[C@@H](C)CC)C(=O)O` [compound 116]: the EC50 (usually the concentration needed to bring the measured effect to its halfway point) in experiment [1] amounted to 6 pM; in experiment [2], 3.6 pM.
The matching figures for `CCCCCCCCCCCCCCCC(=O)N[C@@H](CCC(=O)NCCCC[C@H](NC(=O)[C@H](CCC(N)=O)NC(=O)[C@H](CCCCN)NC(=O)[C@H](CO)NC(=O)[C@H](CC(C)C)NC(=O)[C@H](CC(=O)O)NC(=O)[C@H](CO)NC(=O)[C@@H](NC(=O)[C@H](Cc1ccccc1)NC(=O)[C@@H](NC(=O)CNC(=O)[C@H](CCC(N)=O)NC(=O)[C@@H](CO)NC(=O)[C@@H](N)Cc1c[nH]cn1)[C@@H](C)O)[C@@H](C)O)C(=O)N[C@@H](CC(=O)O)C(=O)N[C@@H](CO)C(=O)N[C@@H](CCCNC(=N)N)C(=O)N[C@@H](CCCNC(=N)N)C(=O)N[C@@H](C)C(=O)N[C@@H](CCC(N)=O)C(=O)N[C@@H](CC(=O)O)C(=O)N[C@@H](Cc1ccccc1)C(=O)N[C@H](C(=O)N[C@@H](CCC(=O)O)C(=O)N[C@@H](Cc1c[nH]c2ccccc12)C(=O)N[C@@H](CC(C)C)C(=O)N[C@@H](CCCCN)C(=O)N[C@@H](CC(N)=O)C(=O)NCC(=O)NCC(=O)N1CCC[C@H]1C(=O)N[C@@H](CO)C(=O)N[C@@H](CO)C(=O)NCC(=O)N[C@@H](C)C(=O)N1CCC[C@H]1C(=O)N1CCC[C@H]1C(=O)N1CCC[C@H]1C(=O)N[C@@H](CO)C(=O)N(CC)CC)[C@@H](C)CC)C(=O)O` [compound 101]: 9.8 pM and 1.7 pM.
The matching figures for `CCCCCCCCCCCCCCCCCC(=O)N[C@@H](CCC(=O)NCCCC[C@H](NC(=O)[C@H](CCC(N)=O)NC(=O)[C@H](CCCCN)NC(=O)[C@H](CO)NC(=O)[C@H](CC(C)C)NC(=O)[C@H](CC(=O)O)NC(=O)[C@H](CO)NC(=O)[C@@H](NC(=O)[C@H](Cc1ccccc1)NC(=O)[C@@H](NC(=O)CNC(=O)[C@H](Cc1c[nH]cn1)NC(=O)C(C)(C)NC(=O)[C@@H](N)Cc1c[nH]cn1)[C@@H](C)O)[C@@H](C)O)C(=O)N[C@@H](CCC(=O)O)C(=O)N[C@@H](CCC(=O)O)C(=O)N[C@@H](CCC(=O)O)C(=O)N[C@@H](C)C(=O)N[C@@H](C)C(=O)N[C@@H](CCCNC(=N)N)C(=O)N[C@@H](CC(C)C)C(=O)N[C@@H](Cc1ccccc1)C(=O)N[C@H](C(=O)N[C@@H](CCC(=O)O)C(=O)N[C@@H](Cc1c[nH]c2ccccc12)C(=O)N[C@@H](CC(C)C)C(=O)N[C@@H](CCCCN)C(=O)N[C@@H](C)C(=O)NCC(=O)NCC(=O)N1CCC[C@H]1C(=O)N[C@@H](CO)C(=O)N[C@@H](CO)C(=O)NCC(=O)N[C@@H](C)C(=O)N1CCC[C@H]1C(=O)N1CCC[C@H]1C(=O)N1CCC[C@H]1C(=O)N[C@@H](CO)C(N)=O)[C@@H](C)CC)C(=O)O` [compound 217]: 4.3 pM and 2.1 pM.
In the same order, the values of `CCCCCCCCCCCCCCCCCCCCC(=O)N[C@@H](CCC(=O)NCCCC[C@H](NC(=O)[C@H](CCC(N)=O)NC(=O)[C@H](CCCCN)NC(=O)[C@H](CO)NC(=O)[C@H](CC(C)C)NC(=O)[C@H](CC(=O)O)NC(=O)[C@H](CO)NC(=O)[C@@H](NC(=O)[C@H](Cc1ccccc1)NC(=O)[C@@H](NC(=O)CNC(=O)[C@H](CCC(N)=O)NC(=O)[C@@H](CO)NC(=O)[C@@H](N)Cc1c[nH]cn1)[C@@H](C)O)[C@@H](C)O)C(=O)N[C@@H](CCC(=O)O)C(=O)N[C@@H](CO)C(=O)N[C@@H](CCCNC(=N)N)C(=O)N[C@@H](C)C(=O)N[C@@H](C)C(=O)N[C@@H](CCC(N)=O)C(=O)N[C@@H](CC(=O)O)C(=O)N[C@@H](Cc1ccccc1)C(=O)N[C@H](C(=O)N[C@@H](CCC(=O)O)C(=O)N[C@@H](Cc1c[nH]c2ccccc12)C(=O)N[C@@H](CC(C)C)C(=O)N[C@@H](CCCCN)C(=O)N[C@@H](C)C(=O)NCC(=O)NCC(=O)N1CCC[C@H]1C(=O)N[C@@H](CO)C(=O)N[C@@H](CO)C(=O)NCC(=O)N[C@@H](C)C(=O)N1CCC[C@H]1C(=O)N1CCC[C@H]1C(=O)N1CCC[C@H]1C(=O)N[C@@H](CO)C(N)=O)[C@@H](C)CC)C(=O)O` [compound 59] are 7.9 pM and 6.8 pM.
For the compound `CCCCCCCCCCCCCCCC(=O)N[C@@H](CCC(=O)NCCCC[C@H](NC(=O)[C@H](CCC(N)=O)NC(=O)[C@H](CCCCN)NC(=O)[C@H](CO)NC(=O)[C@H](CC(C)C)NC(=O)[C@H](CC(=O)O)NC(=O)[C@H](CO)NC(=O)[C@@H](NC(=O)[C@H](Cc1ccccc1)NC(=O)[C@@H](NC(=O)CNC(=O)[C@H](CCC(N)=O)NC(=O)[C@@H](CO)NC(=O)[C@@H](N)Cc1c[nH]cn1)[C@@H](C)O)[C@@H](C)O)C(=O)N[C@@H](CC(=O)O)C(=O)N[C@@H](CO)C(=O)N[C@@H](CCCNC(=N)N)C(=O)N[C@@H](CCCNC(=N)N)C(=O)N[C@@H](C)C(=O)N[C@@H](CCC(N)=O)C(=O)N[C@@H](CC(=O)O)C(=O)N[C@@H](Cc1ccccc1)C(=O)N[C@H](C(=O)N[C@@H](CCC(=O)O)C(=O)N[C@@H](Cc1c[nH]c2ccccc12)C(=O)N[C@@H](CC(C)C)C(=O)N[C@@H](CCCCN)C(=O)N[C@@H](CC(N)=O)C(=O)N[C@@H](C)C(=O)NCC(=O)N1CCC[C@H]1C(=O)N[C@@H](CO)C(=O)N[C@@H](CO)C(=O)NCC(=O)N[C@@H](C)C(=O)N1CCC[C@H]1C(=O)N1CCC[C@H]1C(=O)N1CCC[C@H]1C(=O)N[C@@H](CO)C(N)=O)[C@@H](C)CC)C(=O)O` [compound 93], the figures for the EC50 in experiment [1] and in experiment [2] were 10.7 pM and 2.6 pM, respectively.
For the compound `CCCCCCCCCCCCCCCCCCCCC(=O)N[C@@H](CCC(=O)NCCCC[C@H](NC(=O)[C@H](CCC(N)=O)NC(=O)[C@H](CCCCN)NC(=O)[C@H](CO)NC(=O)[C@H](CC(C)C)NC(=O)[C@H](CC(=O)O)NC(=O)[C@H](CO)NC(=O)[C@@H](NC(=O)[C@H](Cc1ccccc1)NC(=O)[C@@H](NC(=O)CNC(=O)[C@H](CCC(N)=O)NC(=O)C(C)(C)NC(=O)[C@@H](N)Cc1c[nH]cn1)[C@@H](C)O)[C@@H](C)O)C(=O)N[C@@H](CC(=O)O)C(=O)N[C@@H](CCC(=O)O)C(=O)N[C@@H](CCC(N)=O)C(=O)N[C@@H](C)C(=O)N[C@@H](C)C(=O)N[C@@H](CCCCN)C(=O)N[C@@H](CC(C)C)C(=O)N[C@@H](Cc1ccccc1)C(=O)N[C@H](C(=O)N[C@@H](CCC(=O)O)C(=O)N[C@@H](Cc1c[nH]c2ccccc12)C(=O)N[C@@H](CC(C)C)C(=O)N[C@@H](CCCCN)C(=O)N[C@@H](C)C(=O)N[C@H](C)C(=O)NCC(=O)N1CCC[C@H]1C(=O)N[C@@H](CO)C(=O)N[C@@H](CO)C(=O)NCC(=O)N[C@@H](C)C(=O)N1CCC[C@H]1C(=O)N1CCC[C@H]1C(=O)N1CCC[C@H]1C(=O)N[C@@H](CO)C(N)=O)[C@@H](C)CC)C(=O)O` [compound 201], the EC50 is 22.7 pM in experiment [1] and 29.6 pM in experiment [2].
`CCCCCCCCCCCCCCCC(=O)N[C@@H](CCC(=O)NCCCC[C@H](NC(=O)[C@H](CCC(N)=O)NC(=O)[C@H](CCCCN)NC(=O)[C@H](CO)NC(=O)[C@H](CC(C)C)NC(=O)[C@H](CC(=O)O)NC(=O)[C@H](CO)NC(=O)[C@@H](NC(=O)[C@H](Cc1ccccc1)NC(=O)[C@@H](NC(=O)CNC(=O)[C@H](CCC(N)=O)NC(=O)[C@@H](CO)NC(=O)[C@@H](N)Cc1c[nH]cn1)[C@@H](C)O)[C@@H](C)O)C(=O)N[C@@H](CC(=O)O)C(=O)N[C@@H](CCC(=O)O)C(=O)N[C@@H](CCC(N)=O)C(=O)N[C@@H](C)C(=O)N[C@@H](C)C(=O)N[C@@H](CCC(N)=O)C(=O)N[C@@H](CC(=O)O)C(=O)N[C@@H](Cc1ccccc1)C(=O)N[C@H](C(=O)N[C@@H](CCC(=O)O)C(=O)N[C@@H](Cc1c[nH]c2ccccc12)C(=O)N[C@@H](CC(C)C)C(=O)N[C@@H](CCCCN)C(=O)N[C@@H](C)C(=O)NCC(=O)NCC(=O)N1CCC[C@H]1C(=O)N[C@@H](CO)C(=O)N[C@@H](CO)C(=O)NCC(=O)N[C@@H](C)C(=O)N1CCC[C@H]1C(=O)N1CCC[C@H]1C(=O)N1CCC[C@H]1C(=O)N[C@@H](CO)C(N)=O)[C@@H](C)CC)C(=O)O` [compound 34]: the values for the EC50 in experiment [1] and in experiment [2] were 1.5 pM and 6.7 pM, respectively.
As for `CCCCCCCCCCCCCCCCCCNC(=O)[C@H](CO)NC(=O)[C@@H]1CCCN1C(=O)[C@@H]1CCCN1C(=O)[C@@H]1CCCN1C(=O)[C@H](C)NC(=O)CNC(=O)[C@H](CO)NC(=O)[C@H](CO)NC(=O)[C@@H]1CCCN1C(=O)CNC(=O)CNC(=O)[C@H](CC(N)=O)NC(=O)[C@H](CCCCN)NC(=O)[C@H](CC(C)C)NC(=O)[C@H](Cc1c[nH]c2ccccc12)NC(=O)[C@H](CCC(=O)O)NC(=O)[C@@H](NC(=O)[C@H](Cc1ccccc1)NC(=O)[C@H](CC(=O)O)NC(=O)[C@H](CCC(N)=O)NC(=O)[C@H](C)NC(=O)[C@H](CCCNC(=N)N)NC(=O)[C@H](CCCNC(=N)N)NC(=O)[C@H](CO)NC(=O)[C@H](CC(=O)O)NC(=O)[C@H](CCCCNC(=O)CC[C@H](NC(=O)CCCCCCCCCCCCCCC)C(=O)O)NC(=O)[C@H](CCC(N)=O)NC(=O)[C@H](CCCCN)NC(=O)[C@H](CO)NC(=O)[C@H](CC(C)C)NC(=O)[C@H](CC(=O)O)NC(=O)[C@H](CO)NC(=O)[C@@H](NC(=O)[C@H](Cc1ccccc1)NC(=O)[C@@H](NC(=O)CNC(=O)[C@H](CCC(N)=O)NC(=O)[C@@H](CO)NC(=O)[C@@H](N)Cc1c[nH]cn1)[C@@H](C)O)[C@@H](C)O)[C@@H](C)CC` [compound 109], the EC50 came to 430 pM in experiment [1] and 28.6 pM in experiment [2].
